## Antibody variant affinities, Ab-14 heavy chain, assay B

Data: MIT Lincoln Laboratory AlphaSeq set, Li et al. 2023, doi:10.1038/s41467-023-39022-2, as distributed in FLAb.

All variants were tested on one target, the spike HR2 peptide PDVDLGDISGINAS (SARS-CoV-2).

The variants keep the light chain, the linker and the frameworks of Ab-14 (scFv order VH, a 15-residue (Gly4Ser)3 linker, VL).
VH: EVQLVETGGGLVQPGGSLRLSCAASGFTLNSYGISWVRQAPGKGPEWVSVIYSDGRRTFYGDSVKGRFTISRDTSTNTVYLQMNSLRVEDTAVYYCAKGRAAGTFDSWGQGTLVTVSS
VL: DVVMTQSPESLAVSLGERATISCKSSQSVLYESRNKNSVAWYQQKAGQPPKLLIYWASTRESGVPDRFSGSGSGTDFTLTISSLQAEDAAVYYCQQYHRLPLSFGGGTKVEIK

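The starting antibody came from a phage panning campaign against this peptide. Designed CDR sequences, proposed from the first random library and measured here. Several design methods are mixed in this list. The assay is AlphaSeq: two haploid yeast populations carry antibody and antigen on their surface. After mating in shaken culture at 30 °C for 16 h, diploids were selected and their barcode pairs sequenced. A regression on co-assayed BCL2-family reference pairs converts the normalised counts of each replicate to an apparent Kd. The assay was run in six technical replicates.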

The whole VH of each variant is written out. Values are log10 of the apparent Kd in nM; lower means stronger binding. A mean of the replicates is given; it leaves out those without a signal. An entry "no signal" has no value in the source: the pair was not observed among the diploids in any replicate. This suggests poor binding but is not conclusive. Values of this round are not directly comparable with the first-round values of the same sequences. Background: pairings of all heavy chain designs with three empty control strains gave a value in 1% of cases (median 2.08, 5th percentile 0.84). Values in that range, when seen in few replicates, are hard to tell from nonspecific mating. Also given: how often the same scFv was detected with the empty control strains. The parent sequence was in this pool as ten entries: three were never detected, three once, and four in most replicates, with averages from 0.34 to 2.37. In the paper, a design with two or fewer of six values counts as a poor binder.

{"VH": "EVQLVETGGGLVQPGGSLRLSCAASGFTLNSYGISWVRQAPGKGPEWVSVIYSDGRRTFYGDSVKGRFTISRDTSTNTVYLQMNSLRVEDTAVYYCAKGKTAGTFDVWGQGTLVTVSS", "mean, log10 nM": "1.02", "detected": "6/6", "control signals": "0/18"}
{"VH": "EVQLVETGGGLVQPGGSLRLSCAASGFDLDEYGISWVRQAPGKGPEWVSVIYADGRRTFYIDSVKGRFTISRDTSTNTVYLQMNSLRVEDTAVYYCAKGETAGTFDLWGQGTLVTVSS", "mean, log10 nM": "0.28", "detected": "6/6", "control signals": "1/18"}
{"VH": "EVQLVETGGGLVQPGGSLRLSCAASGFSLNSYGISWVRQAPGKGPEWVSVIYSDGRRTFYGDSVKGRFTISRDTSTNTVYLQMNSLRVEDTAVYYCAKGRAAGTFDQWGQGTLVTVSS", "mean, log10 nM": "1.36", "detected": "6/6", "control signals": "0/18"}
{"VH": "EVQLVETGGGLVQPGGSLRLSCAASGFGLNSYGSSWVRQAPGKGPEWVSVIYSDGRRTFYGDSVKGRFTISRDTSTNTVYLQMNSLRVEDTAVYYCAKGRAAGTFDSWGQGTLVTVSS", "mean, log10 nM": "no signal", "detected": "0/6", "control signals": "0/18"}
{"VH": "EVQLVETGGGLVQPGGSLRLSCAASGFSLNSYGISWVRQAPGKGPEWVSVIYSDGRRTFYADSVKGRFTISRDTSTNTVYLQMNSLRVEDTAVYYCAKGNAAGTFDQWGQGTLVTVSS", "mean, log10 nM": "0.93", "detected": "6/6", "control signals": "0/18"}
{"VH": "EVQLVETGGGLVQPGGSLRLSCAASGFDLNEYGISWVRQAPGKGPEWVSVIYADGMRTAYIDSVKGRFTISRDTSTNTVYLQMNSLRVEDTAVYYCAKGEVAGTFDIWGQGTLVTVSS", "mean, log10 nM": "-0.65", "detected": "6/6", "control signals": "1/18"}
{"VH": "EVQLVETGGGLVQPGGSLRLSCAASGFHLNEYGISWVRQAPGKGPEWVSVIYSDGRRTFYGDSVKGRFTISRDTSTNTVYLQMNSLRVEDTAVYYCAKGRTAGTFDWWGQGTLVTVSS", "mean, log10 nM": "0.18", "detected": "6/6", "control signals": "0/18"}
{"VH": "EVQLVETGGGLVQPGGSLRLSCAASGFDLNEYGISWVRQAPGKGPEWVSVIYADGRRTFYSDSVKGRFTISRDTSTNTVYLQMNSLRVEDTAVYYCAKGTVAGTFDEWGQGTLVTVSS", "mean, log10 nM": "-0.40", "detected": "6/6", "control signals": "0/18"}
{"VH": "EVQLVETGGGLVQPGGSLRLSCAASGFDLNEYGISWVRQAPGKGPEWVSVIYADGMRTAYADDVKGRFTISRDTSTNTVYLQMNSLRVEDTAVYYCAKGVNAGTFDVWGQGTLVTVSS", "mean, log10 nM": "-0.31", "detected": "6/6", "control signals": "0/18"}
{"VH": "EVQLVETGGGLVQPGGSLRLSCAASGFDLNSYGISWVRQAPGKGPEWVSVIYSDGRRTAYGDSVKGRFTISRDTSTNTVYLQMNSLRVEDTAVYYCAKGRCAGTFDSWGQGTLVTVSS", "mean, log10 nM": "0.86", "detected": "6/6", "control signals": "1/18"}
{"VH": "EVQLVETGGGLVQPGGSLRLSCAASGFDLNEYGISWVRQAPGKGPEWVSVIYADGLRTFYADSVKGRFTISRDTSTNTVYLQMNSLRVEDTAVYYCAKGNAAGTFDSWGQGTLVTVSS", "mean, log10 nM": "1.57", "detected": "2/6", "control signals": "0/18"}
{"VH": "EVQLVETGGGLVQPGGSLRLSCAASGFDLDEYGISWVRQAPGKGPEWVSVIYADGKRTAYADSVKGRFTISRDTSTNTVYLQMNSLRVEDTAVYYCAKGSNAGTFDVWGQGTLVTVSS", "mean, log10 nM": "0.23", "detected": "5/6", "control signals": "0/18"}
{"VH": "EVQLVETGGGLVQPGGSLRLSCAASGFTLNSYGISWVRQAPGKGPEWVSVIYSDGRRTFYGDSVKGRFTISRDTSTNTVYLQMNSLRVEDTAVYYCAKGRAAGTFNTWGQGTLVTVSS", "mean, log10 nM": "no signal", "detected": "0/6", "control signals": "0/18"}
{"VH": "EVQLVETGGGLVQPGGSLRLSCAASGFELNSYGISWVRQAPGKGPEWVSVIYSDGRRTFYGDSVKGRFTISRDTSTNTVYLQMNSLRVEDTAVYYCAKGKKAGTFDTWGQGTLVTVSS", "mean, log10 nM": "2.37", "detected": "3/6", "control signals": "0/18"}

Excerpt, the first 2 entries:

{"VH": "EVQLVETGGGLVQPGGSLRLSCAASGFTLNSYGISWVRQAPGKGPEWVSVIYSDGRRTFYGDSVKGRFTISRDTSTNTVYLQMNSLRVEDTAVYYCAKGKTAGTFDVWGQGTLVTVSS", "mean, log10 nM": "1.02", "detected": "6/6", "control signals": "0/18"}
{"VH": "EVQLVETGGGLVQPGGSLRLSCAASGFDLDEYGISWVRQAPGKGPEWVSVIYADGRRTFYIDSVKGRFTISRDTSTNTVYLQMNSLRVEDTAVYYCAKGETAGTFDLWGQGTLVTVSS", "mean, log10 nM": "0.28", "detected": "6/6", "control signals": "1/18"}